From US11896417B2, “Time-varying kinetic modeling of high temporal-resolution dynamic pet data for multiparametric imaging” (The Regents of the University of California, priority 2018, dated 2024) come the findings set out here.

For data set [1] the following is noted: human, in vivo.
For data set [2] the following is noted: in vivo.

Bounds are passed on as bounds.

For the substance ^18F-fluorodeoxyglucose [FDG], in data set [1], the “E (FDG extraction fraction)” value was 0.38±0.08, the “F (blood flow)” value stood at 1.62 ± 0.43 mL/g/min, the “Tc (transit time)” value worked out at 13.00 ± 3.06 s and the “fv (fractional blood volume)” value amounted to 0.07±0.05. In addition, the “k2 (tissue-to-blood delivery rate)” value in data set [1] worked out at 0.81 ± 0.28 min⁻¹. The “myocardial FDG extraction fraction E” value in data set [2] was less than 0.3.
